Earlier results as cited in patent US9675579B2, “Tetrahydrocannabivarin for use in the treatment of nausea and vomiting” (GW Pharma Limited, priority 2013, dated 2017).

System: rodent
Details: 2.5 mg/kg, sub-threshold for nausea on its own, pre-treatment prior to saccharin-LiCl pairing, drug-free test 72 hours after conditioning; cited from earlier work

## AM251
  potentiation of the nausea produced by LiCl (potentiated gaping): potentiated the nausea produced by LiCl
